Ab-14 light chain CDR variants: yeast mating affinities

Values reported by Engelhart et al. 2022, doi:10.1038/s41597-022-01779-4 (FLAb copy).

Binding partner: SARS-CoV-2 spike HR2 peptide, sequence PDVDLGDISGINAS.

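Phage display of a naive human antibody library on the peptide gave the parent. Library AAYL50 holds single substitutions and randomly drawn double and triple substitutions in the CDRs. Affinity was read by AlphaSeq, a pooled yeast mating assay with surface-displayed partners. Mating (16 h, 30 °C) was followed by selection of diploids and sequencing of their barcodes. A regression on co-assayed BCL2-family reference pairs converts the normalised counts of each replicate to an apparent Kd. Mating was done three times.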

The variants keep the heavy chain, the linker and the frameworks of Ab-14 (scFv order VH, a 15-residue (Gly4Ser)3 linker, VL).
VH: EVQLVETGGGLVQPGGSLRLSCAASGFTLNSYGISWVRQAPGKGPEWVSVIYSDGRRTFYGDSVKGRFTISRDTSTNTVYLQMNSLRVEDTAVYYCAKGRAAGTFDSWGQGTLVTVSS
VL: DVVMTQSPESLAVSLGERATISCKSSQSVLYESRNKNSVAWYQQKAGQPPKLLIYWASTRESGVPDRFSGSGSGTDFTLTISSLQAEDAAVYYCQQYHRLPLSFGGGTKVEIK

Variants are written as CDR1, CDR2 and CDR3 of the light chain (limits as in the source). Parent: KSSQSVLYESRNKNSVA, WASTRES, QQYHRLPLS.
This list gathers variants with a substitution at A57 (VL, numbered from residue 1).
The Kd shown is the geometric mean over detected replicates; a lower Kd is a better binder.
Where no diploid with the target was found in any replicate, the entry reads "no signal": below detection, most likely a poor binder, though not proof of it.
Background: pairings of library AAYL50 with three empty control strains gave a value in 18% of cases (median 15 µM, 5th percentile 970 nM). Values in that range, when seen in few replicates, are hard to tell from nonspecific mating. For each scFv, signals with the empty controls are counted beside the result.

* KSSQSVLYESRNKNSVA / WDSTRES / QQYHRSALS -> 77 µM (2 of 3 replicates; controls 4 of 9)
* NSSQSVLYESRNKNSVA / WHSTRES / QQYHRLPLS -> 42 µM (1 of 3 replicates; controls 4 of 9)
* KSSQSVLQESRNKNEVA / WVSTRES / QQYHRLPLS -> 380 nM (3 of 3 replicates; controls 0 of 9)
* KSSQSVLYEERNKNSVA / LMSTRES / QQYHRLPLS -> 160 nM (3 of 3 replicates; controls 0 of 9)
* ISDQSVLYESRNKNSVA / WLSTRES / QQYHRLPLS -> no signal (0 of 3 replicates; controls 0 of 9)
* KSSQSVLYESRNKNVVA / WPSPRES / QQYHRLPLS -> 9.2 µM (2 of 3 replicates; controls 2 of 9)
* KSKQSVLYESRNKNSVA / WCSTRES / QQYHRLPLS -> 4.4 µM (2 of 3 replicates; controls 2 of 9)
* KSSQSGWYESRNKNSVA / WGSTRES / QQYHRLPLS -> 13 nM (3 of 3 replicates; controls 0 of 9)
* KSSQSVLYEERNKNSVA / WCSTRES / QQQHRLPLS -> 4.0 µM (1 of 3 replicates; controls 2 of 9)
* KSSQSVLYESPNKNSVA / WVSTRVS / QQYHRLPLS -> 13 nM (3 of 3 replicates; controls 3 of 9)
* KSSQSVLYEERNKNSVA / WDSTRES / QQYHWLPLS -> no signal (0 of 3 replicates; controls 1 of 9)
* KSSQSVLYESRNKNSSA / WNSTRES / QQYHRLPLF -> no signal (0 of 3 replicates; controls 0 of 9)
* KSSQSVFYEARNKNSVA / WISTRES / QQYHRLPLS -> 16 µM (3 of 3 replicates; controls 1 of 9)
* KSSQSVLYESRNKNSVA / WFSTRWS / EQYHRLPLS -> 2.6 µM (2 of 3 replicates; controls 0 of 9)
* KSSQSVLYESRNWNSVA / WVSTRES / QQYHRHPLS -> no signal (0 of 3 replicates; controls 0 of 9)
* KGSQSVLYESRNKNSVA / WRSTRES / QQYHRDPLS -> no signal (0 of 3 replicates; controls 1 of 9)
* KSSQSVLYESRNKNSVA / WRSTRES / QQYHSLWLS -> 1.2 µM (3 of 3 replicates; controls 0 of 9)
* KSSQSVPYESRNKNSGA / WQSTRES / QQYHRLPLS -> 19 µM (3 of 3 replicates; controls 3 of 9)
* KSSQSPLYESRNKNSVA / SSSTRES / QQYHRLPLS -> 1.1 nM (3 of 3 replicates; controls 5 of 9)
* KSSQSVLYESRNVPSVA / WVSTRES / QQYHRLPLS -> no signal (0 of 3 replicates; controls 0 of 9)
* KSSQSVAYESRNKNSVA / WKSTRES / QQYMRLPLS -> 210 nM (3 of 3 replicates; controls 2 of 9)
* KSSQSVLYESRNKNSVA / WEGTRES / QYYHRLPLS -> no signal (0 of 3 replicates; controls 3 of 9)
* KSSQSVLYESRNKNSVA / WTSTRES / WQYHRLVLS -> no signal (0 of 3 replicates; controls 1 of 9)
* KSSQSVLYESRNKNSPA / YTSTRES / QQYHRLPLS -> no signal (0 of 3 replicates; controls 1 of 9)
* NSSQSVLYESRNKNSVA / WKSTRES / QQYHRLPPS -> 2.1 µM (1 of 3 replicates; controls 2 of 9)
* KSSQSVLYESRNKNSVA / WWSGRES / QQYHRLPLS -> 3.2 µM (1 of 3 replicates; controls 1 of 9)
* KSSPSVLYESRNKNSVA / WMSTRES / QQYPRLPLS -> 7.5 µM (1 of 3 replicates; controls 1 of 9)
* KSSQSVLYESRNKNSVA / WKSTLES / QQYHRLPIS -> no signal (0 of 3 replicates; controls 3 of 9)
* KSSQSVLYESRNKNSVA / WISTRES / QQYHRLPLE -> no signal (0 of 3 replicates; controls 3 of 9)
* KSLQSVLYESRNKNSVA / WQSTREL / QQYHRLPLS -> no signal (0 of 3 replicates; controls 0 of 9)
* KSSQSVLYESRNKNSEA / WESTRES / QQYHYLPLS -> no signal (0 of 3 replicates; controls 1 of 9)
* LSSQSVLYESRNKNSVA / WQSTRES / QQYHQLPLS -> 10 µM (2 of 3 replicates; controls 3 of 9)
* KSSQSVLYESRNKNSVA / WHSTRES / QQYHYLPLM -> 39 µM (1 of 3 replicates; controls 1 of 9)
* KSSQSVLYESPNKNSVA / WYSTRES / QQYIRLPLS -> no signal (0 of 3 replicates; controls 3 of 9)
* KSSQSVLYESRNKNSVA / WPSTRES / QQYSRWPLS -> no signal (0 of 3 replicates; controls 1 of 9)
* KSSQQVLYESRNKNSVA / WGSTRES / QQYHRLPLV -> 25 nM (3 of 3 replicates; controls 0 of 9)
* KSSQSVLYESRNKNSVA / WRSTRES / QQYQRLPLP -> no signal (0 of 3 replicates; controls 3 of 9)
* KSSQSVLYESRNKNSVA / WKSTRIS / QQYHRLPLP -> no signal (0 of 3 replicates; controls 0 of 9)
* KSSQSVRYESRNKNSVA / WDSTRES / QIYHRLPLS -> no signal (0 of 3 replicates; controls 0 of 9)
* KSMQSVLYESRNKNSIA / WKSTRES / QQYHRLPLS -> no signal (0 of 3 replicates; controls 0 of 9)
* KSSQSVLYESRNKNSVA / WMSYRES / QQYKRLPLS -> 1.1 µM (3 of 3 replicates; controls 4 of 9)
* KSSQSVLYESRNKNSVA / WLSTRES / QQCHRLPLI -> 2.5 µM (2 of 3 replicates; controls 1 of 9)

In this assay the parent's reference entry averaged 4.4 nM; its copy inside this library read 48 nM.